Experiment [1] addresses Receptor-type tyrosine-protein kinase FLT3 (Homo sapiens) (UniProt P36888). As to the kind of experiment: Inhibition of FLT3 (unknown origin) at 10 uM relative to control.
In experiment [2] the target is T1, Serine/threonine-protein kinase RIO1 (Homo sapiens) (UniProt Q9BRS2).
T1 sequence (whole entry): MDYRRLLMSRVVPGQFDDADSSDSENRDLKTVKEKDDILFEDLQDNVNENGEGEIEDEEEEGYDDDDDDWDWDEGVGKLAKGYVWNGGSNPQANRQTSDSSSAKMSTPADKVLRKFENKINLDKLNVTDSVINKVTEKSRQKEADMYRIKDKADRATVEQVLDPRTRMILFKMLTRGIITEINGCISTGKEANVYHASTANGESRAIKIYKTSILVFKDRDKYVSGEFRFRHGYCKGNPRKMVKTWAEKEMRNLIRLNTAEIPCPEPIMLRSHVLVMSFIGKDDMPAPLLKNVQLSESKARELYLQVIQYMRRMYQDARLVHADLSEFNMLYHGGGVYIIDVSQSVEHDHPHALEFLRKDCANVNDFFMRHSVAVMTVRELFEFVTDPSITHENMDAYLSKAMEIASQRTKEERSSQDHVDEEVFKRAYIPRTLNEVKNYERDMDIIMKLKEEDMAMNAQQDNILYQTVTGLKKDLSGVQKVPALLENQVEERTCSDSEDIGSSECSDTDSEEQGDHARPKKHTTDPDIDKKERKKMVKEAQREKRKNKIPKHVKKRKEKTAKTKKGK
As to the kind of experiment: Inhibition of RIOK1 (unknown origin) at 10 uM relative to control.

Protein sequences, listed by entry. Tags and fused reporters are not part of them. Lines headed by an entry give the natural chain unless they say otherwise; changes in a name come on top.
UniProt P36888, whole entry: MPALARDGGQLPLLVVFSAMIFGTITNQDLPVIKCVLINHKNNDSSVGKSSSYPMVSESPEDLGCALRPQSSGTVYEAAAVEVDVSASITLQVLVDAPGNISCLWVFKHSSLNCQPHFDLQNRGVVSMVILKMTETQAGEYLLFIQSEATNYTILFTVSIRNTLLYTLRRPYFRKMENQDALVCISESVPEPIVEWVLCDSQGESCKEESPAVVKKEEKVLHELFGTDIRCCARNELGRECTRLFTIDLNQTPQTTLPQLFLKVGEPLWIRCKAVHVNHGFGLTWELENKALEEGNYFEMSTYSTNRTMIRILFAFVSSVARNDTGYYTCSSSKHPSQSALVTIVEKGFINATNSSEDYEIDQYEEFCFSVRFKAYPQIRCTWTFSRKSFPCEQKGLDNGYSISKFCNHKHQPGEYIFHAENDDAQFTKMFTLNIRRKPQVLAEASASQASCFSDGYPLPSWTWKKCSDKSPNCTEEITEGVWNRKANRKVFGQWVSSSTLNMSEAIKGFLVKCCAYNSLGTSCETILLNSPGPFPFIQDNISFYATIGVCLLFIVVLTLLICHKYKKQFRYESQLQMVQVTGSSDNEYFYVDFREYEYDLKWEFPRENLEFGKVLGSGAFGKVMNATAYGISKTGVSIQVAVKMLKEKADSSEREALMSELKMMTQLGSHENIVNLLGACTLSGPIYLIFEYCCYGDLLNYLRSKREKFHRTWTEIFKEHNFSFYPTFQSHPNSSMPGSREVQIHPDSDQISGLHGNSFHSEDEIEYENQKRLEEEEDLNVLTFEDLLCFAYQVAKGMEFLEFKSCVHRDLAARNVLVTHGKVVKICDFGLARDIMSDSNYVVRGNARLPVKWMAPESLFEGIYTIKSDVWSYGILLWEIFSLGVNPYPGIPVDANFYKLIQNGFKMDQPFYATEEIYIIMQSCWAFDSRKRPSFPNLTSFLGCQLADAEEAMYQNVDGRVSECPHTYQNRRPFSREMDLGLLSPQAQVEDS
UniProt Q99755: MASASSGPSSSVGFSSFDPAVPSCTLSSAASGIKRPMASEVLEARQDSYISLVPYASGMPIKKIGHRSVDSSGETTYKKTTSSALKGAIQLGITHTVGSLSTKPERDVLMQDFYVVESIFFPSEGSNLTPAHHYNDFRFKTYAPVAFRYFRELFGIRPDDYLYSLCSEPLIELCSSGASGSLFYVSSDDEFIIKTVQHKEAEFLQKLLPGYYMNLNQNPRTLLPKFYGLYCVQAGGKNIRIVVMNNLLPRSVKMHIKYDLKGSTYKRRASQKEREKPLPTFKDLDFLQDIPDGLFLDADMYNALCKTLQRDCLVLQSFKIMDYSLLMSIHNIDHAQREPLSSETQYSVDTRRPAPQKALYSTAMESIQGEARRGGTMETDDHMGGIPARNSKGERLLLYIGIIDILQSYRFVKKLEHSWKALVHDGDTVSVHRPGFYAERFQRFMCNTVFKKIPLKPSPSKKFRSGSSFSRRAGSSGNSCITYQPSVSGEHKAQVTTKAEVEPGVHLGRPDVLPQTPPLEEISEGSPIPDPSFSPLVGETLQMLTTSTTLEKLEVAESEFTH
UniProt P10721, whole entry: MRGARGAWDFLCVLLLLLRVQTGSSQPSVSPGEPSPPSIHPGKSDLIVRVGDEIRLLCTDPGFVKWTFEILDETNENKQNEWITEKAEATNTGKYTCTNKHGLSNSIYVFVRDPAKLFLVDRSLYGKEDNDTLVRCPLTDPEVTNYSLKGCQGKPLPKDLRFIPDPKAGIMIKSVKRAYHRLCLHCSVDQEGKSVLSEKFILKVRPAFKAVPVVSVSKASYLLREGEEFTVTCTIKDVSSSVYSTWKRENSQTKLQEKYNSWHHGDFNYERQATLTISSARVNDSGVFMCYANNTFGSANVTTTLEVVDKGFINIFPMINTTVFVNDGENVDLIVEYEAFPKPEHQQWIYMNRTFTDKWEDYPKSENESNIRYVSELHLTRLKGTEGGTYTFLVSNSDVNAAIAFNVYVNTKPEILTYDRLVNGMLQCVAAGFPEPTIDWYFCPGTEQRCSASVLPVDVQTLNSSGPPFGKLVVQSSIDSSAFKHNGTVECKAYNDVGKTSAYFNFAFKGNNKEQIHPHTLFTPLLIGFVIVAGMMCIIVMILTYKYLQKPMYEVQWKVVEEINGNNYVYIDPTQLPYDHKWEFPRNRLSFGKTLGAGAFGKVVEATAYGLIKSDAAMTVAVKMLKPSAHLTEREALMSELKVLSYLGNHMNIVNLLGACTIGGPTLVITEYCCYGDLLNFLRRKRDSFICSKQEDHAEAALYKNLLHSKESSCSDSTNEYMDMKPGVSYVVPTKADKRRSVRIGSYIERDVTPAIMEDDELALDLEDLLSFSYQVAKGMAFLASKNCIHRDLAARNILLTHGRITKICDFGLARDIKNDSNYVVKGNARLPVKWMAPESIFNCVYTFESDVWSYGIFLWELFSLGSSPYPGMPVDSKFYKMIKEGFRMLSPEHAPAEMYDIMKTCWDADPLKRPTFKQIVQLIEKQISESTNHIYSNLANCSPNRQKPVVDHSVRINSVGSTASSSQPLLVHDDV

Experiment [3] concerns the target Phosphatidylinositol 4-phosphate 5-kinase type-1 alpha (Homo sapiens) (UniProt Q99755). The experiment in a line: Inhibition of PIP5K1A (unknown origin) at 10 uM relative to control.
Experiment [4] deals with T2, Serine/threonine-protein kinase RIO3 (Homo sapiens) (UniProt O14730).
T2 sequence (whole entry): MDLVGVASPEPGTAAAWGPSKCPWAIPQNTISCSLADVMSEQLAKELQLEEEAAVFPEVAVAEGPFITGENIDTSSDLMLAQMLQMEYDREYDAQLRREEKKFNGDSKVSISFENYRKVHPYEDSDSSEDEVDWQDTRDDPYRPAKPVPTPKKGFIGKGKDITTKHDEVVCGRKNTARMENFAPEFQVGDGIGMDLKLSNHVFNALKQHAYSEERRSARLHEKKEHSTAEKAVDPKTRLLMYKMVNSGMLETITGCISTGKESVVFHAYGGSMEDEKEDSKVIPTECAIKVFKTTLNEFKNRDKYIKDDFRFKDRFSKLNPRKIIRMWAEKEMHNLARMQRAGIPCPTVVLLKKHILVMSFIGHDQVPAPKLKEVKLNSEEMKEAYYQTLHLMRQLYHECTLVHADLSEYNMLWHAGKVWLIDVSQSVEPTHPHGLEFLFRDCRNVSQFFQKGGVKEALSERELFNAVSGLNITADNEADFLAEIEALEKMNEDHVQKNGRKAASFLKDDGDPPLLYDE
The experiment in a line: Inhibition of RIOK3 (unknown origin) at 10 uM relative to control.

The target of experiment [5] is Mast/stem cell growth factor receptor Kit (Homo sapiens) (UniProt P10721). As to the kind of experiment: Inhibition of c-KIT (unknown origin) at 10 uM relative to control.

Results on 1 compound are retold here after ChEMBL document CHEMBL5579821, “Non-kinase off-target inhibitory activities of clinically-relevant kinase inhibitors” (Eur J Med Chem, 2024).

As a reminder, the inhibition is the share of the control response that was lost under treatment. Turning to `C[C@@H]1CC(=O)NN=C1c1ccc(NN=C(C#N)C#N)cc1`, the inhibition in experiment [1] was 76%; in experiment [2], 85%; in experiment [3], 78%; in experiment [4], 85%; in experiment [5] it was 74%.
